{
  "source": "patent US10576144B2",
  "about": "“Amino acid and peptide conjugates and conjugation process” (AUCKLAND UNISERVICES LIMITED, priority 2014, dated 2020)",
  "test_system": "CD4+ T cell clone 1D6",
  "assay": "CD4+ T cell clone activation assay, NY-ESO-1 118-143 constructs, autologous LCL as APC",
  "format": "cell-based, human",
  "conditions": "LCL pulsed with construct; 147 tested +/−P3C; 116 and 115 titratable (FIG. 13)",
  "method": "Human CD4+ and CD8+ T cell clones were maintained at a concentration of 1-3×10^6/ml in RPMI 1640 supplemented with Glutamax, Penicillin/Streptomycin and 5% v/v human serum (“RS5”, all reagents from Life Technologie). Media was refreshed 50% v/v twice weekly. RS5 for CD4+ T cell clones was supplemented with IL-7 and IL-21, and RS5 for CD8+ T cell clones was supplemented with IL-7+IL-15 (all cytokines from PeproTech, used at a final concentration of 5 ng/ml).\nEpstein-Barr Virus (“EBV”)-producing B95-8 MM cells were grown in RPMI 1640 supplemented with Glutamax, Penicillin/Streptomycin and 10% v/v fetal bovine serum (“RF10”, all reagents from Invitrogen) in T75 flasks (BD Biosciences). EBV-containing medium was collected and centrifuged to pellet non-adherent cells, and the EBV-containing supernatant then filter-sterilised (0.22 μm). 10×10^6 donor Peripheral Blood Mononuclear Cells (“PBMC”) were suspended in 1.5 ml RF10 in aT25 flask (BD Biosciences). […] Flasks were monitored for outgrowth of B cell LCL, typically over 4-6 weeks, with transfer to a T75 flask (BD Biosciences) when required. […]\nData acquisition was performed using a BD FACSAria II with FACSDiva software, and data analysis was performed using FlowJo software (Treestar). Data were presented as the median fluorescence intensity (MFI)+SD of CD25 and CD134 expression on live clonal cells. […]",
  "data": [
    {"substance": "p121-138: NY-ESO-1 residues 121-138 peptide, pulsed on LCL at 1 μM as positive control [reference compound]", "values": [
      {"measurement": "response of clone 1D6", "value": "responds well"}
    ]}
  ]
}
